Data on one substance can be found in paper PMC12193508.

Assay [1] addresses MJsHsp (sHsp of Methanocaldococcus jannaschii with T33M mutation) (Methanocaldococcus jannaschii) (UniProt Q57733). The assay is described as follows: AUC; sedimentation velocity at 40 °C, 0.1 mg/mL, 40,000 rpm, Rayleigh interference optics, c(s20,w) with SEDFIT; oligomers of one protein.
For assay [2] the target is unchanged. The assay is described as follows: AUC; sedimentation velocity at 40 °C, 1.0 mg/mL, 40,000 rpm, Rayleigh interference optics, c(s20,w) with SEDFIT; oligomers of one protein.

As for “MJsHsp (sHsp of Methanocaldococcus jannaschii with T33M mutation) (from UniProt Q57733 1-147) (natural protein)”, in assay [1], the w, weight fraction of peak a (N 3) was determined as 7.3%; the w, weight fraction of peak b (N 7) amounted to 5.7%; the w, weight fraction of peak c (N 15) turned out to be 4.8%; the w, weight fraction of peak d (N 24) worked out at 35.7%. In assay [1], this substance returned a w, weight fraction of peak e (N 39) of 30.7%; a w, weight fraction of peak f (N 55) of 10.6%; a w, weight fraction of peak g (N 71) of 5.2%. For the same substance, in assay [2], the w, weight fraction of peak a (N 5) was found to be 2.1%; the w, weight fraction of peak b (N 11) was determined as 1.7%; the w, weight fraction of peak c (N 14) was 2%; the w, weight fraction of peak d (N 23) is 38.7%. In assay [2], the w, weight fraction of peak e (N 33) worked out at 8.8%; the w, weight fraction of peak f (N 40) stood at 27.6%; the w, weight fraction of peak g (N 52) is 12.1%; the w, weight fraction of peak h (N 65) is 7%.
